The values that follow come from US10722580B2, “Compositions and methods for treatment and prevention of uropathogenic E. coli infection” (UNIVERSITY OF WASHINGTON, priority 2015, dated 2020).

The target of test [1] is T1, FimH (Escherichia coli, UniProt P08191).
T1 construct: rows headed: KD for mannose; fimbrial FimH^wt
The conditions noted are these: open, low-affinity conformation; fimbrial FimH^wt; read-out: KD for mannose; cited from earlier work.

Test [2] concerns the target FimH. The conditions noted are these: tightened, high-affinity conformation; read-out: KD for mannose; cited from earlier work.
A further test concerns the target fimbrial FimH^wt (Escherichia coli, UniProt P08191). The conditions noted are these: pre-treatment with 1% mannose or 50 μg/ml mAb (FIG. 4A).

Turning to “α-methyl-D-mannopyranoside [mannose, reference compound]”, the Kd (as a rule, the equilibrium constant for the complex coming apart) on FimH [1] was 298 µM; on FimH [2], 1.2 µM. Further, the “conversion of FimH^wt to the active conformation (mAb21 binding after pre-treatment)” value on fimbrial FimH^wt was “converts it from the inactive to the active conformation”.
